According to PubChem BioAssay AID589 (National Center for Advancing Translational Sciences (NCATS), 2007):
Out of some 59,000 compounds screened, about 6,200 (11%) were called active. These results got no clear call from the source, so the numbers are uncertain. Rule as the data show it: active = max dye-equivalent concentration above about 10 nM; inconclusive = mostly about 1.1 nM to 9.6 nM; inactive = weaker than that.

Assay: qHTS Assay for Spectroscopic Profiling in 4-MU Spectral Region
Conditions: compound autofluorescence, 340/450 nm, 4-MU equivalents; hits give high values
Excerpt: NIH Molecular Libraries Screening Centers Network [MLSCN] NIH Chemical Genomics Center [NCGC] […] Occasionally, the artifactual effect may originate from the compounds own spectral or other biophysical properties which generally tend to track its assay concentration. Pre-screening/profiling the library with respect to the compounds spectral properties should help one exclude false positives early on. While the most informative fluorescent profiling data set is obtained by performing a full excitation and emission scan of each well by using a monochromator-based plate reader, such an approach is practical only on a very limited scale as scanning each well requires long time. An alternative approach, applied here, is to perform plate reader scans using selected excitation and emission wavelength pairs to generate a multidimensional relational database that correlates compound concentration and the respective relative fluorescence intensity at a given wavelength set. A standard curve of 4-methylumbelliferone (4-MU) present on each plate as six-point concentration series, was used to compute a normalized fluorescence response, termed dye-equivalent concentration, for each compound at each concentration.
NCGC Assay Protocol Summary: Buffer: 100 mM Tris buffer, pH 8.0 Dye standard plate: The wells in columns 1 through 4 of a Kalypsys polypropylene 1536-well compound plate were filled with standard solutions of fluorophore corresponding to the spectral region of interest. Solutions of 4-MU were placed in the following wells: A1, B1: 3 mM, A2, B2: 300 uM, A3, B3: 30 uM, A4, B4: zero (DMSO), C1, D1: 3 uM, C2, D2: 900 nM, C3, D3: 300 nM, C4, D4: zero (DMSO). Assay Steps: Six uL of buffer were dispensed to 1536-well Greiner black plates. Compounds and dye standards (23 nL) were transferred via Kalypsys PinTool. The plates were incubated for 15 min at room temperature, and then read on ViewLux (Perkin-Elmer) High-throughput CCD imager using 340 nm and 450 nm excitation and emission filter set. Keywords: NIH Roadmap, MLSCN, MLI, MLSMR, qHTS, NCGC, Fluorescent Profiling, 4MU, 4-MU

Compound	max dye-equivalent concentration
CN1CCC[C@H](OC(=O)C(c2ccccc2)c2ccccc2)C1	inconclusive: 8.3 nM
Cc1cccc(OCC(=O)OC2CN3CCC2CC3)c1 (centres undefined)	inconclusive: 5.3 nM
CN(C(=O)Cc1ccc(Cl)c(Cl)c1)[C@@H]1CC[C@@]2(CCCO2)C[C@H]1N1CCCC1	inconclusive: 5.3 nM
O=C(CC(=O)c1ccccc1)O[C@H]1CN2CCC1CC2	inconclusive: 5.6 nM
